Assay results as given in patent US20080279957A1, “Immunomodulating compositions from bile” (Lorus Therapeutics Inc., priority 2000, published 2008).

System: lymphocytes
Assay: Stimulation of lymphocyte-mediated cytotoxic function
Format: cell-based, human
Settings: optimal stimulating concentration of IL-2

For Interleukin-2 [IL-2], the Lymphocyte-mediated cytotoxic function was 472.5 Lytic Units.
